Target: Cytochrome P450 2C19 (Homo sapiens, UniProt P33261)
Assay: Inhibition of CYP2C19 in human liver microsomes using S-mephenytoin as substrate
Type: ADME, Microsome
Method in brief: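 Human liver microsomes (0.1 mg/mL) with S-mephenytoin 40 µM in 0.1 M phosphate pH 7.4; compound 100 nM–30 µM in duplicate, 15 min preincubation at 37 °C, then 1 mM NADPH for 30 min. 4-Hydroxymephenytoin measured by LC/MS/MS; IC50 derived.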

Sequences of proteins named here, by UniProt entry; tags and fusion partners are left off. A change or cut given only in a name is not applied to a line headed by its entry.
UniProt P33261, whole entry: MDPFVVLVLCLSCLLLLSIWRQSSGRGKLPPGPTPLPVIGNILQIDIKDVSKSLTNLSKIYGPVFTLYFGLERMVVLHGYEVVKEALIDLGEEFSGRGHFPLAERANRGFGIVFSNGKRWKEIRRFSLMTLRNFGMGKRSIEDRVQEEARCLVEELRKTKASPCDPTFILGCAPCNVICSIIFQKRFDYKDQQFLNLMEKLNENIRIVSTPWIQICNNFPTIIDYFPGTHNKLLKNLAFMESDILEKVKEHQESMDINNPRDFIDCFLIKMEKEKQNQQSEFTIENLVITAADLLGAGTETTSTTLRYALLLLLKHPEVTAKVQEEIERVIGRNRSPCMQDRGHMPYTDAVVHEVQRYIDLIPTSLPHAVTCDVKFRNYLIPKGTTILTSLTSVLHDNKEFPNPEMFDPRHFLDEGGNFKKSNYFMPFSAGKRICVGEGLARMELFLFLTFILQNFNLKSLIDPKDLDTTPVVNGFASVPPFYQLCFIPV
UniProt Q14833: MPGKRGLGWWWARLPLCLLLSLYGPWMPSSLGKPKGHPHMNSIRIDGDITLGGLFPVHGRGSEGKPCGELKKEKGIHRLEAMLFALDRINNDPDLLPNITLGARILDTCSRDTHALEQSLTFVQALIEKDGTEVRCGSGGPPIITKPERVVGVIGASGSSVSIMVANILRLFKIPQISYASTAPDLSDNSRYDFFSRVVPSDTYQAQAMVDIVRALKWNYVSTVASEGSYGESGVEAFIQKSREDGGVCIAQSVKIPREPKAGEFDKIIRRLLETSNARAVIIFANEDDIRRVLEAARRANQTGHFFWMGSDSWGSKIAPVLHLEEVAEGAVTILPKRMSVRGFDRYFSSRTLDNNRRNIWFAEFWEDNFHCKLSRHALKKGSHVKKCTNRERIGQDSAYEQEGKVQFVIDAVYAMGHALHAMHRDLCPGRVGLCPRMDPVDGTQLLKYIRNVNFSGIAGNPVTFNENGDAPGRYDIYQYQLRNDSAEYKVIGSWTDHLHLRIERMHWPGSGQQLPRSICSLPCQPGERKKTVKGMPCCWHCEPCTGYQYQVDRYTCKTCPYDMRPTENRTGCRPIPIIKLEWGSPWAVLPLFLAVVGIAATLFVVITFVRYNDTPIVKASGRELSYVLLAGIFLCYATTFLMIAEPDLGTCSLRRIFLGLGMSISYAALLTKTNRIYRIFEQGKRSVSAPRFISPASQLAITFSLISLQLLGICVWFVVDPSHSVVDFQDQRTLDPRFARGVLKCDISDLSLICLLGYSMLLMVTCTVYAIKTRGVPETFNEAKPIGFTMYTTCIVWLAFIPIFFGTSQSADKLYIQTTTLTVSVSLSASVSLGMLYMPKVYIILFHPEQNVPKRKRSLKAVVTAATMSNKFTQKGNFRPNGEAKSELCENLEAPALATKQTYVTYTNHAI

`O=C(Nc1ccc(N2C(=O)CC3(CCCCC3)C2=O)c(Cl)c1)c1ccccn1` was tested, and the IC50 was greater than 30000 nM.

Target: Metabotropic glutamate receptor 4 (Homo sapiens, UniProt Q14833)
Assay: Positive allosteric modulator activity at human mGlu4 receptor expressed in CHO cells expressing Gqi5 by calcium mobilization assay

In order of falling EC50:
1. CC1(c2ccccc2)CC(=O)N(c2ccc(NC(=O)c3ccccn3)cc2Cl)C1=O (racemic)  771 nM
2. O=C(Nc1ccc(N2C(=O)CC(c3ccccc3)C2=O)c(Cl)c1)c1ccccn1 (racemic)  674 nM
3. CC1(C)[C@@H]2C(=O)N(c3ccc(NC(=O)c4ccccn4)cc3Cl)C(=O)[C@@H]21  435 nM
4. O=C(Nc1ccc(N2C(=O)[C@H]3CCCC[C@H]3C2=O)c(Cl)c1)c1ccccn1  370 nM
5. O=C(Nc1ccc(N2C(=O)[C@@H]3[C@H](C2=O)[C@H]2C=C[C@@H]3CC2)c(Cl)c1)c1ccccn1  287 nM
6. O=C(Nc1ccc(N2C(=O)CC3(CCCCC3)C2=O)c(Cl)c1)c1ccccn1  158 nM
7. O=C(Nc1ccc(N2C(=O)c3ccccc3C2=O)c(Cl)c1)c1ccccn1  59.4 nM
8. O=C(Nc1ccc(N2C(=O)c3cccc(Cl)c3C2=O)c(Cl)c1)c1ccccn1  41.9 nM
